Data from PubChem BioAssay (NCI).
Only a part is listed here, and it is no random draw.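 Activity criterion: percent growth below 10, measured after cells in 96-well plates were exposed to a single compound concentration for 48 hours.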 The source made the active and inactive calls.

Assays:
Assay in all cases: NCI-60 one-dose screen, 48 h (100 = growth as untreated, 0 = no growth, -100 = all killed)
Details in all cases: 10 µM unless noted
[1] = tested on: NCI-H23 lung
[2] = tested on: NCI-H226 lung
[3] = tested on: NCI-H322M lung
[4] = tested on: HOP-62 NSCLC
[5] = tested on: NCI-H460 lung
[6] = tested on: HOP-92 NSCLC
[7] = tested on: NCI-H522 lung
[8] = tested on: A549/ATCC NSCLC
[9] = tested on: 786-0 renal
[10] = tested on: COLO 205 colon
[11] = tested on: DU-145 prostate
[12] = tested on: K-562 leukemia
[13] = tested on: MALME-3M melanoma
[14] = tested on: MDA-MB-231 breast
[15] = tested on: RXF 393 renal
[16] = tested on: SF-268 CNS
[17] = tested on: SF-295 CNS
[18] = tested on: SF-539 CNS
[19] = tested on: UACC-257 melanoma
[20] = tested on: M14 melanoma

Measured: growth

CCCNC(=O)c1ccc(N(CCCl)CCCl)cc1
inactive: [1] 95% | [2] 105% | [3] 118% | [4] 89.5% | [5] 100% | [6] 77.2% | [7] 91.2% | [8] 93.4% | [9] 107% | [10] 108% | [11] 117% | [12] 113% | [13] 110% | [14] 111% | [15] 120% | [16] 107% | [17] 109% | [18] 109% | [19] 97.1% | [20] 96.9%

CCCN(CCCl)C1c2ccccc2-c2ccccc21
inactive: [1] 99.1% | [2] 97.4% | [3] 96.9% | [4] 88.5% | [5] 109% | [6] 94.3% | [7] 92.1% | [8] 92.2% | [9] 94.7% | [10] 104% | [11] 105% | [12] 106% | [13] 101% | [14] 98.1% | [15] 122% | [16] 100% | [17] 94.8% | [18] 98.1% | [19] 104% | [20] 94.4%

CC1(CCC2(C)N=C(NN=C(CCl)CCl)SP2(=O)Nc2ncccn2)N=C(NN=C(CCl)CCl)SP1(=O)Nc1ncccn1 (centres undefined)
inactive: [1] 96.7% [100 µM] | [2] 89.5% [100 µM] | [3] 98.9% [100 µM] | [4] 97.2% [100 µM] | [5] 105% [100 µM] | [6] 90.9% [100 µM] | [7] 90.6% [100 µM] | [8] 99.5% [100 µM] | [9] 98% [100 µM] | [10] 112% [100 µM] | [11] 110% [100 µM] | [12] 107% [100 µM] | [13] 100% [100 µM] | [14] 108% [100 µM] | [15] 98% [100 µM] | [16] 100% [100 µM] | [17] 110% [100 µM] | [18] 103% [100 µM] | [19] 94.7% [100 µM] | [20] 104% [100 µM]

O=[As](O)(c1cccc(O)c1)c1cccc(O)c1
inactive: [1] 92.8% | [2] 95.2% | [3] 120% | [4] 91.2% | [5] 105% | [6] 100% | [7] 92% | [8] 96.7% | [9] 92.6% | [10] 121% | [11] 117% | [12] 105% | [13] 140% | [14] 112% | [15] 119% | [16] 111% | [17] 117% | [18] 96.6% | [19] 18.8% | [20] 94.8%

Nc1cccc2c([As](=O)(O)O)cccc12
inactive: [1] 94.5% | [2] 97.4% | [3] 141% | [4] 81.4% | [5] 109% | [6] 112% | [7] 109% | [8] 108% | [9] 88.9% | [10] 119% | [11] 112% | [12] 92.3% | [13] 114% | [14] 113% | [15] 112% | [16] 103% | [17] 108% | [18] 94.7% | [19] 96%

ClCCN1CCn2cnc3ncnc-3c21
inactive: [1] 110% | [2] 103% | [3] 107% | [4] 106% | [5] 112% | [6] 99.2% | [7] 87.8% | [8] 111% | [9] 98.9% | [10] 114% | [11] 105% | [12] 110% | [13] 109% | [14] 107% | [15] 105% | [16] 97.8% | [17] 98.9% | [18] 102% | [19] 109% | [20] 99.8%

Cc1ccc(C)c(C(=O)N(CCCl)CCCl)c1
inactive: [1] 106% | [2] 96.9% | [3] 95.2% | [4] 102% | [5] 104% | [6] 98.9% | [7] 101% | [8] 103% | [9] 108% | [10] 113% | [11] 104% | [12] 112% | [13] 89.3% | [14] 105% | [15] 95% | [16] 99% | [17] 85.3% | [18] 104% | [19] 112% | [20] 107%

C[As](=O)(O)c1cccc(C(=O)O)c1
inactive: [1] 98.8% | [2] 98.9% | [3] 105% | [4] 95% | [5] 107% | [6] 81.6% | [7] 93% | [8] 99.4% | [9] 96.4% | [10] 110% | [11] 114% | [12] 107% | [13] 102% | [14] 109% | [15] 95.5% | [16] 107% | [17] 105% | [18] 101% | [19] 98.1% | [20] 104%
